Values of other authors as cited in article PMC12595476, “FibrilPaint to determine the length of Tau amyloids in fluids” (Proceedings of the National Academy of Sciences of the …, 2025).

System: Amyloid-β (Aβ) plaques
Settings: in words; cited from earlier work
Excerpt: The formation of amyloid fibrils is one of the earliest pathological hallmarks of neurodegenerative diseases ([3], [6], [12]–[15]). Recently, the antibodies Aducanumab and Lecanemab have been approved to target Amyloid-β (Aβ) plaques in the brain, aiming to slow down the progression of the disease and improve cognitive function ([16], [17]). In AD, Aβ aggregation outside the cell precedes Tau aggregation inside the cell ([4], [13], [18]).

For “Aducanumab: antibody approved to target Amyloid-β (Aβ) plaques [reference compound]”, the clinical effect is listed as “modest” and the risks is listed as “significant risks involved”.
